The chains behind the UniProt entries cited, without tags or fusion partners. Residues count along the entry.
UniProt G1T4Q9, 60-263 limits assumed: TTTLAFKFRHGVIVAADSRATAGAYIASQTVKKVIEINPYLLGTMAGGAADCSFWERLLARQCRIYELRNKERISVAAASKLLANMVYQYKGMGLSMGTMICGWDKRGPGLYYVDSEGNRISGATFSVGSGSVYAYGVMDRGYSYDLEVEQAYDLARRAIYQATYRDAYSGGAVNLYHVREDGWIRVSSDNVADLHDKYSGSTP
UniProt G1SU71, 1-241 partner: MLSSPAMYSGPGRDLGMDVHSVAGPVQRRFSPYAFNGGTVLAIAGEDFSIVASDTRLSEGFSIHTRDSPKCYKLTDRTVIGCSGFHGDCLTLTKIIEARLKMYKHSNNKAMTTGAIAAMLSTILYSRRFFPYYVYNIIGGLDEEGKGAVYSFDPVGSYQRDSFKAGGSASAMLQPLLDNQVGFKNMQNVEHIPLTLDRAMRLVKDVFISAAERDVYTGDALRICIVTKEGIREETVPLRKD

In patent publication US5693617A, “Inhibitors of the 26s proteolytic complex and the 20s proteasome contained therein” (ProScript, Inc., priority 1995, dated 1997):

Biological target: 20S proteasome (Oryctolagus cuniculus, UniProt G1T4Q9)
Assay: Inhibition of the 20S proteasome peptidase activity (kinetic experiments)
Assay type: biochemical
Details: read-out: Ki 20S; Rabbit muscle, SDS-activated, substrate Suc-LLVY-AMC

| Structure (SMILES) | Ki [nM] |
| --- | --- |
| CC(C)CC(C=O)NC(=O)[C@H](CC(C)C)NC(=O)[C@H](Cc1csc2ccccc12)NC(=O)OCc1ccccc1 (stereo partly drawn) | 0.19 |
| CC(C)C[C@@H](C=O)NC(=O)[C@H](CC(C)C)NC(=O)CNC(=O)OCc1ccccc1 | 557 |
| CC(C)C[C@@H](C=O)NC(=O)[C@H](CC(C)C)NC(=O)[C@H](CC(C)C)NC(=O)Cc1cccnc1 | 9.2 |
| CC(C)CC(C=O)NC(=O)[C@H](Cc1cccc2ccccc12)NC(=O)N1CCOCC1 (stereo partly drawn) | 97 |
| CC(C)C[C@@H](C=O)NC(=O)[C@H](CC(C)C)NC(=O)[C@H](CC(C)C)NC(=O)c1ccncc1 | 270 |
| CC(C)C[C@@H](C=O)NC(=O)[C@H](CC(C)C)NC(=O)[C@H](CC(C)C)NC(=O)N1CCOCC1 | 20 |
| CC(C)C[C@@H](C=O)NC(=O)[C@H](C)NC(=O)[C@@H]1CCCN1C(=O)OCc1ccccc1 | 700 |
| CC(C)C[C@@H](C=O)NC(=O)CC(O)[C@H](CC(C)C)NC(=O)[C@@H](CC(C)C)NC(=O)OCc1ccccc1 (stereo partly drawn) | 57 |
| CC(C)CC(C=O)NC(=O)[C@H](Cc1ccccc1)NC(=O)OCc1ccccc1 (stereo partly drawn) | 1000 |
| CC(C)C[C@@H](C=O)NC(=O)[C@H](CC1CCCCC1)NC(=O)[C@H](Cc1cccc2ccccc12)NC(=O)OCc1ccccc1 | 0.1 |
| CC(C)C[C@@H](C=O)NC(=O)[C@H](CC(C)C)NC(=O)[C@H](CC(C)C)NC(=O)OCc1cccnc1 | 5.5 |
| CC(C)C[C@@H](C=O)NC(=O)[C@H](CC(C)C)NC(=O)[C@H](CC(C)C)NC(=O)Cc1ccncc1 | 5.5 |
| CC(C)C[C@H](NC(=O)OCc1ccccc1)C(=O)N[C@@H](CC(C)C)C(=O)N[C@@H](CC(C)C)[C@@H](O)CC=O | 154 |
| CC(C)C[C@H](NC(=O)OC(C)(C)C)C(=O)N[C@@H](CC(C)C)C(=O)N[C@H](C=O)Cc1ccc(O)cc1 | 77 |
| CC(C)C[C@@H](C=O)NC(=O)[C@H](CC(C)C)NC(=O)[C@H](CC(C)C)NS(=O)(=O)Cc1ccccc1 | 11 |
| CC(C)C[C@@H](C=O)NC(=O)[C@H](CC(C)C)NC(=O)C1Cc2ccccc2CN1C(=O)OCc1ccccc1 (stereo partly drawn) | 71 |
| CC(C)CC(C=O)NC(=O)[C@H](CC(C)C)NC(=O)[C@H](CC(C)C)NC(=O)CCC(=O)O (stereo partly drawn) | 39 |
| CC(C)C[C@H](NC(=O)OCc1ccccc1)C(=O)N[C@@H](CC(C)C)C(=O)NC(C=O)Cc1ccc(F)cc1 (stereo partly drawn) | 14 |
| CC(C)C[C@@H](C=O)NC(=O)[C@H](CC1CCCCC1)NC(=O)[C@H](Cc1c[nH]c2ccccc12)NC(=O)OCc1ccccc1 | 0.08 |
| CC(C)C[C@@H](C=O)NC(=O)[C@H](CC(C)C)NC(=O)[C@H](CC(C)C)NC(=O)C(F)(F)F | 34 |
| CC(C)CC(C=O)NC(=O)[C@H](CC(C)C)NC(=O)[C@H](CC(C)C)NC(=O)CCCO (stereo partly drawn) | 8 |
